Assay: Rat in situ intestinal perfusion (ileum, mesenteric blood)
Settings: saturated and supersaturated itraconazole perfusate

With hydroxy-itraconazole the “metabolite in mesenteric blood during perfusion” value was “no significant amounts could be detected”.

Reference: US8258137B2, “Process for release of biologically active species from mesoporous oxide systems” (Katholieke Universiteit Leuven, priority 2008, dated 2012)
